Data published in PubChem BioAssay AID1117354 (Cheminformatics & Chemogenomics Research Group (CCRG), …, 2015).
Calls of active or inactive are those of the source. No rule for the calls is given here.

Chains of the proteins cited; added tags and fusions are not shown.
UniProt O60674, whole entry, looked up: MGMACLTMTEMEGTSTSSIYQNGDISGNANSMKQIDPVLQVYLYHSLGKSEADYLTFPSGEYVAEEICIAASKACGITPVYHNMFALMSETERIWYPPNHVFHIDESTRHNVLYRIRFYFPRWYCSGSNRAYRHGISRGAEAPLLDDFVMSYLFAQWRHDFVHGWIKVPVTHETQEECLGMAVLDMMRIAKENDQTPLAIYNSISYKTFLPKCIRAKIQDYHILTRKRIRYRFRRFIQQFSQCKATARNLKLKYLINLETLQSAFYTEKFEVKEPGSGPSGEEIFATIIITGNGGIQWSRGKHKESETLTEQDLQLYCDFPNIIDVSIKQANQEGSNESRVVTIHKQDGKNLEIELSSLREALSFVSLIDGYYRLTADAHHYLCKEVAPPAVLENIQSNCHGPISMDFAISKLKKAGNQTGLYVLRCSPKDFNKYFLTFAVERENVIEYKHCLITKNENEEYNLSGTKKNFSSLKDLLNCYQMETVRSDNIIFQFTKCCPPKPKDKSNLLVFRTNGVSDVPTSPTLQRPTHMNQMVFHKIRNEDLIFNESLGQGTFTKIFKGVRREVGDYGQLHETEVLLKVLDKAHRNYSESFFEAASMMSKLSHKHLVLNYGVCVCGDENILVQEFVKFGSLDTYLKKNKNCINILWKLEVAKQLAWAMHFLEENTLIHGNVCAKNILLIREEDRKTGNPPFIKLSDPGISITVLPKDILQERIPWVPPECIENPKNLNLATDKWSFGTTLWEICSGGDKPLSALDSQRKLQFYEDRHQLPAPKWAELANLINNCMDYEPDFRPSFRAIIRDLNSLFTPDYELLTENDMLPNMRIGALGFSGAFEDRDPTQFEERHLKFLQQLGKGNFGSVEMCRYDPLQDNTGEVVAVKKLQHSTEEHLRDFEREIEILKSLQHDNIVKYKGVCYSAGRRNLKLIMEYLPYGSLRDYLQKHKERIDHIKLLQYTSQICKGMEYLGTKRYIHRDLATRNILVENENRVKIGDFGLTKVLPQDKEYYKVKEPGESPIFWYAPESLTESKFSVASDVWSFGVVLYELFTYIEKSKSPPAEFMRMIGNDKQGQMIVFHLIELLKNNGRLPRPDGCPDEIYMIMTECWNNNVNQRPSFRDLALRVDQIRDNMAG

Molecular target: Tyrosine-protein kinase JAK2 (Homo sapiens) (UniProt O60674)
Experiment: NCGC Pharmaceutical Collection primary HTS, Janus kinase 2 (Homo sapiens) inhibitors, biochemical, LANCE Ultra TR-FRET (AID 1117354)
Conditions: LANCE Ultra TR-FRET kinase assay, at 20 µM (top of the series)

CN(CCCl)CCCl
inhibition: inactive: -1.58%
